## Binding of CDR-mutated scFvs to a peptide of the spike HR2 region

Data: MIT Lincoln Laboratory AlphaSeq set, Engelhart et al. 2022, doi:10.1038/s41597-022-01779-4, as distributed in FLAb.

The target is the same throughout: PDVDLGDISGINAS, from the HR2 region of SARS-CoV-2 spike.

The variants keep the heavy chain, the linker and the frameworks of Ab-95 (scFv order VH, a 15-residue (Gly4Ser)3 linker, VL).
VH: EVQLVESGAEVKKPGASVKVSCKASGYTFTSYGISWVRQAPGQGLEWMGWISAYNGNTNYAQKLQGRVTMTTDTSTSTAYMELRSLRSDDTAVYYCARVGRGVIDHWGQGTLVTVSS
VL: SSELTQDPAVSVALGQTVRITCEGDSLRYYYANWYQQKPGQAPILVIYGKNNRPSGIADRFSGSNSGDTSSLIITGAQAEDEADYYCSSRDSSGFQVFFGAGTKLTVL

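Phage display of a naive human antibody library on the peptide gave the parent. Variants in AAYL52 differ from the parent at up to three CDR positions; double and triple changes were sampled at random. AlphaSeq pools MATa yeast showing the antibodies with MATalpha yeast showing the peptide. Pairs that bind mate more often; barcode pairs of the diploids are counted by sequencing. Read counts were normalised to the haploid input and turned into Kd by a linear fit to BCL2-family pairs of known affinity, for each replicate. Each pool was mated in three replicate cultures.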

Positions count from residue 1 of the parent VL; R28C puts C in place of R.
Affinities are written as log10 Kd with Kd in nM; a lower number is a better binder.
A mean of the replicates is given; it leaves out those without a signal.
"n.d." marks a missing value. The strain was present, yet no cells mated with the target were sequenced in that replicate, which points to weak or no binding.
Background: pairings of library AAYL52 with three empty control strains gave a value in 28% of cases (median 3.91, 5th percentile 2.90). Values in that range, when seen in few replicates, are hard to tell from nonspecific mating. The control count says in how many pairings with the empty strains this scFv gave a signal, with their mean in brackets.
In this assay the parent's reference entry averaged 2.31; its copy inside this library read 2.25.

| changes | log10 Kd (nM) by replicate | mean, log10 nM | control signals |
|---|---|---|---|
| R28C/N33D/V97W | n.d. 5.52 n.d. | 5.52 | 3/9 (4.13) |
| G49E/R53P/S55V | n.d. 5.38 n.d. | 5.38 | 3/9 (4.31) |
| D25R/Y31I/R53K | 4.00 4.14 3.33 | 3.82 | 3/9 (4.19) |
| L27P/G49W/V97T | 3.82 n.d. n.d. | 3.82 | 1/9 (4.54) |
| R90G/F95T | 2.82 3.46 2.26 | 2.85 | 2/9 (3.99) |
| S88G/R90N/S93E | 2.03 2.56 2.29 | 2.29 | 3/9 (3.66) |
| N33E/G94E/V97L | 5.07 n.d. 3.44 | 4.25 | 2/9 (3.84) |
| E23P/D91H/F98C | 5.43 n.d. n.d. | 5.43 | 5/9 (3.99) |
| E23I/D25S | 2.57 2.55 2.49 | 2.54 | 4/9 (3.77) |
| R28V/P54A/S92V | 2.68 1.92 2.79 | 2.46 | 5/9 (4.49) |
| D91Y/V97P/F98T | 2.26 2.37 3.32 | 2.65 | 1/9 (3.48) |
| Y29P/P54R/S89T | 4.79 n.d. 3.09 | 3.94 | 4/9 (3.66) |
| L27C/N51P/Q96C | 4.88 n.d. 3.81 | 4.35 | 4/9 (3.63) |
| E23H/S26D/Y30A | 1.24 1.25 0.65 | 1.05 | 2/9 (4.55) |
| G49W/N51R/P54G | 4.00 3.92 n.d. | 3.96 | 4/9 (3.62) |
| N51H/D91T | n.d. n.d. n.d. | n.d. | 0/9 |
| N51R/S89V/S92E | n.d. 4.04 3.95 | 3.99 | 4/9 (4.18) |
| S26E/N33Y/N52R | n.d. n.d. n.d. | n.d. | 1/9 (4.45) |
| E23P/Y31I/S92E | n.d. 4.54 3.91 | 4.22 | 5/9 (3.91) |
| S88I/S89Q/V97Y | 2.37 2.51 2.07 | 2.32 | 0/9 |
| E23K/S88G/S89K | n.d. 3.43 3.76 | 3.59 | 3/9 (3.82) |
| S92H | 2.37 2.76 2.51 | 2.55 | 4/9 (3.60) |
| L27N/Y31Q/G49R | n.d. n.d. n.d. | n.d. | 3/9 (3.51) |
| Y30W/N33H/S55A | 3.69 4.66 n.d. | 4.17 | 4/9 (4.27) |
| N52C/R90V/F98M | n.d. n.d. n.d. | n.d. | 0/9 |
| E23R/R28C/N33A | 3.65 2.76 3.07 | 3.16 | 2/9 (3.76) |
| R28P/G94C/F95T | 2.65 2.55 n.d. | 2.60 | 4/9 (4.35) |
| Y30F/N52R/F98Y | 3.77 3.90 3.19 | 3.62 | 4/9 (3.98) |
| P54V/S93K/F95A | 4.77 4.64 2.76 | 4.06 | 2/9 (3.91) |
| P54T/Q96C/F98C | 4.98 3.18 n.d. | 4.08 | 3/9 (4.14) |
| L27H/Y31D/N33R | n.d. n.d. 4.35 | 4.35 | 1/9 (4.86) |
| Y31I/K50D/G94S | 2.87 2.99 2.55 | 2.80 | 7/9 (4.13) |
| D25I/A32C | 3.24 2.36 2.17 | 2.59 | 3/9 (5.04) |
| E23P/F98Q | n.d. 2.94 n.d. | 2.94 | 0/9 |
| G24M/D91W/S93V | 3.63 n.d. 4.16 | 3.90 | 2/9 (2.93) |
| Y29K/N51F | 4.17 3.48 2.74 | 3.46 | 6/9 (4.35) |
| E23Q/N52Q/S92H | 1.48 1.63 1.16 | 1.42 | 3/9 (3.84) |
| N52P/S89C/S93M | 4.50 n.d. n.d. | 4.50 | 4/9 (3.92) |
| Y30Q/S55N/S92E | 0.73 0.77 0.02 | 0.51 | 2/9 (4.40) |
| A32L/N33S/S89L | 3.63 3.92 3.06 | 3.54 | 1/9 (4.76) |
| E23V/Y30E/F98K | 1.66 1.97 1.58 | 1.74 | 1/9 (2.12) |
| E23Q/G49H/G94N | n.d. n.d. n.d. | n.d. | 3/9 (4.90) |
| Y30T/S55R/S89R | 2.01 2.02 1.89 | 1.97 | 4/9 (4.07) |

The closing 6 entries, repeated:

changes	log10 Kd (nM) by replicate	mean, log10 nM	control signals
N52P/S89C/S93M	4.50 n.d. n.d.	4.50	4/9 (3.92)
Y30Q/S55N/S92E	0.73 0.77 0.02	0.51	2/9 (4.40)
A32L/N33S/S89L	3.63 3.92 3.06	3.54	1/9 (4.76)
E23V/Y30E/F98K	1.66 1.97 1.58	1.74	1/9 (2.12)
E23Q/G49H/G94N	n.d. n.d. n.d.	n.d.	3/9 (4.90)
Y30T/S55R/S89R	2.01 2.02 1.89	1.97	4/9 (4.07)